According to ChEMBL document CHEMBL1143536, “QSAR analyses of conformationally restricted 1,5-diaryl pyrazoles as selective COX-2 inhibitors: application of connection table representation of ligands” (Bioorg Med Chem Lett, 2005):

Assay: Ratio of inhibitory concentration against prostaglandin G/H synthase 1 to that of prostaglandin G/H synthase 2

Ratio: 1.09
Structure (SMILES): NS(=O)(=O)c1ccc(-n2nc(C(F)(F)F)c3c2-c2ccccc2CC3)cc1
